Source: patent US20090181896A1, “Use of Natriuretic Peptide Receptor Antagonists to Treat Ocular, Otic and Nasal Edemetous Conditions” (ALCON RESEARCH, LTD., priority 2006, published 2009)

Experiments:
[1] = biological target: T1, Type-B natriuretic peptide receptor in human corneal epithelial cells (Homo sapiens, UniProt P20594); assay: Natriuretic peptide-stimulated cGMP production (guanylyl cyclase activity, EIA) in human corneal epithelial cells; assay type: cell-based; conditions: read-out: Potency EC50, cGMP production via type-B receptor, mean ± SEM
T1 construct: primary human corneal epithelial cells (P-CEPI) were isolated from human donor eyes; endogenous in cells; host or cells: primary human corneal epithelial cells (P-CEPI) and SV40-immortalized human corneal epithelial cells (CEPI-17-CL4)
T1 sequence (P20594 23-1047): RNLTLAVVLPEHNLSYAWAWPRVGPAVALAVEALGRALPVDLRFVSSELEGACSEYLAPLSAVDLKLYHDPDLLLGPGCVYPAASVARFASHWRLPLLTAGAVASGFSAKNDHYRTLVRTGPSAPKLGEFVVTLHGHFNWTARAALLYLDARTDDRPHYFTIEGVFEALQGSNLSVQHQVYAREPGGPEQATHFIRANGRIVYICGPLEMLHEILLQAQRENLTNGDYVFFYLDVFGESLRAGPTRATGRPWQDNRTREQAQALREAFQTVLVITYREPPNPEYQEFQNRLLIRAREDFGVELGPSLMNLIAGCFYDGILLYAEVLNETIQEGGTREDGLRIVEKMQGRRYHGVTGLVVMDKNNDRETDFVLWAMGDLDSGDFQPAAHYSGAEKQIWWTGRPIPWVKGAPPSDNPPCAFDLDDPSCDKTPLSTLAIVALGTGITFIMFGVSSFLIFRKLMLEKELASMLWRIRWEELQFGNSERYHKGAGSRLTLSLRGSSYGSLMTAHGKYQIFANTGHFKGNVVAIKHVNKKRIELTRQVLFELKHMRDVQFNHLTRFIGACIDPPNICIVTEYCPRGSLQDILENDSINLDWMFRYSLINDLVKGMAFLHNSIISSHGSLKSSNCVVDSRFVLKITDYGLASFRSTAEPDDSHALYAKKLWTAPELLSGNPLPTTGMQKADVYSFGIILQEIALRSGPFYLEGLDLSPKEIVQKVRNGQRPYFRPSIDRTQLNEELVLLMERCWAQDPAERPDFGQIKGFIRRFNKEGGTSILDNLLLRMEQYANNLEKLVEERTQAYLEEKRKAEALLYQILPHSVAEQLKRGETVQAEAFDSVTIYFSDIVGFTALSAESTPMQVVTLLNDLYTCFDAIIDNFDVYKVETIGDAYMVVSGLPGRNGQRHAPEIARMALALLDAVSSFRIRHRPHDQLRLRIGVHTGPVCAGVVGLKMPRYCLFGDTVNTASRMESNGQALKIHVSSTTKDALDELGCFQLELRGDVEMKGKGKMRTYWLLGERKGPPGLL

[2] = biological target: T2, Type-A natriuretic peptide receptor in human conjunctival epithelial cells (Chang cells) (Homo sapiens, UniProt P16066); assay: Natriuretic peptide-stimulated cGMP production (guanylyl cyclase activity, EIA) in human conjunctival epithelial cells (Chang cells); assay type: cell-based; conditions: read-out: Potency EC50, cGMP production via type-A receptor, mean ± SEM
T2 construct: the most relevant cells are Chang cells (Clone 1-5C-4 Wong-Kilbourne Derivative); These cells were obtained from ATCC; host or cells: Chang cells (Clone 1-5C-4 Wong-Kilbourne Derivative), human conjunctival epithelial cells
T2 sequence (P16066 33-1061): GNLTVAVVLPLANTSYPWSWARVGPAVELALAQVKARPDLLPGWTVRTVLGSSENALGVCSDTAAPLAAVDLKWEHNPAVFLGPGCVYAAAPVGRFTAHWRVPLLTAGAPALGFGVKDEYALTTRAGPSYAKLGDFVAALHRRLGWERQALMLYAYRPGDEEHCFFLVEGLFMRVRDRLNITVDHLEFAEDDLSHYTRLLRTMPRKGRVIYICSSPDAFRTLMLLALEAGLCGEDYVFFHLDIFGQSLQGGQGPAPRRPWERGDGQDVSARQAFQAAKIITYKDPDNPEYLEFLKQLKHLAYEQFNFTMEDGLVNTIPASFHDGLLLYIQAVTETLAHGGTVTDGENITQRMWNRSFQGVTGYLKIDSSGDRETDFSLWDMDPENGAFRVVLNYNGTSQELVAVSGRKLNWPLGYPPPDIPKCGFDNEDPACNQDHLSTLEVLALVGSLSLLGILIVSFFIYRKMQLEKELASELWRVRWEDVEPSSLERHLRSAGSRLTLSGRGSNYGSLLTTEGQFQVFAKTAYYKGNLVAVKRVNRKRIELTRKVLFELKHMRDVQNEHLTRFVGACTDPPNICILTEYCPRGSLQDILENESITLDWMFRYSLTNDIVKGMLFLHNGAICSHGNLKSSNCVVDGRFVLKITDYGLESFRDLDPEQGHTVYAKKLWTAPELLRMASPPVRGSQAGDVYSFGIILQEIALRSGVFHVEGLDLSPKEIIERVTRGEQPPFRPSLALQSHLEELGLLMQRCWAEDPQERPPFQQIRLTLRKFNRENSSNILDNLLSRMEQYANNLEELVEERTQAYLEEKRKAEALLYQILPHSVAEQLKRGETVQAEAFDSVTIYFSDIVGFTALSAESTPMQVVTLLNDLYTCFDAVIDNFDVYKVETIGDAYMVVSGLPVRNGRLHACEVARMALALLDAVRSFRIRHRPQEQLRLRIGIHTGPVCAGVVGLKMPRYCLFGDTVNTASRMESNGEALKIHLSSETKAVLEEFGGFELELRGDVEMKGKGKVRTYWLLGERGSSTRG
Procedure: These cells were obtained from ATCC (Manassas, Va.) and cultured in medium 199, containing 10% fetal bovine serum and […] Gentamicin. (obtained from Gibco/Invitrogen; Carlsbad, Calif.).
Cells were seeded in 48-wells culture plates. On reaching confluence, the cells were rinsed twice with 0.5 ml Dulbeco's modified Eagle's medium (DMEM)/F-12. […] Natriuretic peptides (American Peptide Co. Inc., Sunnyvale, Calif.; Peninsula Labs. San Carlos, Calif.) were then added at the end of this period and the reaction was allowed to proceed for another 15 minutes at 23° C. After aspiration of the reaction medium, ice cold 0.1 M acetic acid ([…], pH 3.5) was added for the termination of cGMP synthesis and cell lysis. Finally, ice-cold 0.1 M sodium acetate ([…], pH 11.5-12.0) was added to neutralize the samples before analysis of cGMP by an enzyme immunoassay (EIA) kit. cGMP production in the cells was measured using the EIA kit purchased from Amersham Pharmacia Biotech (Piscataway, N.J.). […] Data were analyzed using a non-linear, iterative curve-fitting computer program (IDBS, Surrey, UK) and Origin software package (Microcal Software, Inc., Northampton, Mass.) (Sharif et al. 1996; Crider et al. 2003).

Substance | EC50 [1] [nM] | EC50 [2] [nM]
C-type natriuretic peptide [CNP] | 7 ± 2.6 | > 10000
brain natriuretic peptide [BNP] | 54 ± 4 | 3.2 ± 2.2
